From the OPERA property sets (Mansouri et al. 2018)

Row | SMILES | logP
1 | Cn1cnc([N+](=O)[O-])c1[N+](=O)[O-] | 0.41
2 | O=[N+]([O-])c1cnc([N+](=O)[O-])[nH]1 | 0.2
3 | Cc1nc([N+](=O)[O-])c([N+](=O)[O-])[nH]1 | 0.77
4 | O=[N+]([O-])c1nc[nH]c1[N+](=O)[O-] | 0.65
5 | Cn1cc([N+](=O)[O-])nc1[N+](=O)[O-] | -0.17
